Data: patent publication US12152019B2, “Arylalkyl pyrazole compounds as indoleamine 2,3-dioxygenase inhibitors” (Merck Sharp & Dohme LLC, priority 2018, dated 2024)

Amino acid sequences for entries named in this document (tags omitted).
UniProt P14902, whole entry: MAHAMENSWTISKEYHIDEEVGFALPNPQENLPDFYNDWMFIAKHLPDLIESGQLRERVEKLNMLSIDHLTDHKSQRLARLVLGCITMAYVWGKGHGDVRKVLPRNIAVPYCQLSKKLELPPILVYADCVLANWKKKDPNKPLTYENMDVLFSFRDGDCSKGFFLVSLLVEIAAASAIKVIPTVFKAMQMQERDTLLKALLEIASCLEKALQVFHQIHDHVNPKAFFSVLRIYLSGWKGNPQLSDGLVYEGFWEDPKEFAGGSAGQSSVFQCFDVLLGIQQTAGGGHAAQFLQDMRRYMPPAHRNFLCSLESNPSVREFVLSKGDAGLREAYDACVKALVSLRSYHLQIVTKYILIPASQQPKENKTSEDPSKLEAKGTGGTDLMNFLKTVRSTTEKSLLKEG

target: IDO1 (Homo sapiens, UniProt P14902); assay: IDO1 Cellular Assay in HeLa Cells Stimulated with IFNγ; assay type: cell-based; conditions: HeLa cells stimulated with IFNγ 100 ng/mL, 300 uM L-tryptophan, about 48 hours, fluorescence readout; read-out: HeLa Cell Potency, IC50

Row | Structure (SMILES) | IC50 [nM]
1 | CC(=O)NC1CCN(C(=O)c2nn(CC[C@H]3CC[C@@H](Oc4ncccc4C)CC3)cc2CCC(F)(F)F)CC1 [Example 73, N-(1-(1-(2-((1s,4s)-4-((3-methylpyridin-2-yl)oxy)cyclohexyl)ethyl)-4-(3,3,3-trifluoropropyl)-1H-pyrazole-3-carbonyl)piperidin-4-yl)acetamide] | 14.3
2 | Cc1c(F)ccc(N2CCC(CCn3nc(C(=O)N4CCC(O)(CF)CC4)c4c3CCC4)CC2)c1C [Example 9, [1-[2-[1-(4-fluoro-2,3-dimethyl-phenyl)piperidin-1-ium-4-yl]ethyl]-5,6-dihydro-4H-cyclopenta[c]pyrazol-3-yl]-[4-(fluoromethyl)-4-hydroxy-1-piperidyl]methanone] | 8.39
3 | Cc1c(Cl)cccc1N1CCC(O)(CCn2nc(C(=O)N3CC[C@H](O)[C@H](F)C3)c3c2C[C@H]2C[C@@H]32)CC1 [Example 97, ((3bR,4aR)-1-(2-(1-(3-chloro-2-methylphenyl)-4-hydroxypiperidin-4-yl)ethyl)-3b,4,4a,5-tetrahydro-1H-cyclopropa[3,4]cyclopenta[1,2-c]pyrazol-3-yl)((3R,4S)-3-fluoro-4-hydroxypiperidin-1-yl)methanone] | 21.4
4 | CC(=O)NC1CCN(C(=O)c2nn(CCC3CCN(c4cccc(Cl)c4C)CC3)c3c2CCCC3)CC1 [Example 20, N-[1-[1-[2-[1-(3-chloro-2-methyl-phenyl)-4-piperidyl]ethyl]-4,5,6,7-tetrahydroindazole-3-carbonyl]-4-piperidyl]acetamide] | 1.31
5 | Cc1cccnc1O[C@H]1CC[C@@H](CCn2nc(C(=O)N3CCC(NC(=O)OC(C)(C)C)CC3)c3c2CCC(F)(F)C3)CC1 [Example 86, tert-butyl {1-[5,5-difluoro-1-(2-{cis-4-[(3-methylpyridin-2-yl)oxy]cyclohexyl}ethyl)-4,5,6,7-tetrahydro-1H-indazole-3-carbonyl]piperidin-4-yl}carbamate] | 26.8
6 | O=C(c1nn(CCC2CCN(c3cccc(F)c3)CC2)c2c1CCC2)N1CCC(O)CC1 [Example 2, [1-[2-[1-(3-fluorophenyl)piperidin-1-ium-4-yl]ethyl]-5,6-dihydro-4H-cyclopenta[c]pyrazol-3-yl]-(4-hydroxy-1-piperidyl)methanone] | 32.7
7 | Cc1c(F)ccc(N2CCC(CCn3nc(C(=O)N4CCN(C(=O)CO)CC4)c4c3CCC4)CC2)c1C [Example 11, 1-[4-[1-[2-[1-(4-fluoro-2,3-dimethyl-phenyl)piperidin-1-ium-4-yl]ethyl]-5,6-dihydro-4H-cyclopenta[c]pyrazole-3-carbonyl]piperazin-1-yl]-2-hydroxy-ethanone] | 12
8 | Cc1c(F)ccc(N2CCC(CCn3nc(C(=O)N4CC[C@@H](O)[C@@H](F)C4)c4c3CCC4)CC2)c1C (stereo in doubt) [Example 13, [1-[2-[1-(4-fluoro-2,3-dimethyl-phenyl)piperidin-1-ium-4-yl]ethyl]-5,6-dihydro-4H-cyclopenta[c]pyrazol-3-yl]-(3-fluoro-4-hydroxy-1-piperidyl)methanone] | 24.6
9 | CC(=O)NC1CCN(C(=O)c2nn(CCC3CCN(c4ncc(C)cc4C)CC3)c3c2CCCC3)CC1 [Example 26, N-[1-[1-[2-[1-(3,5-dimethyl-2-pyridyl)-4-piperidyl]ethyl]-4,5,6,7-tetrahydroindazole-3-carbonyl]-4-piperidyl]acetamide] | 6.23
10 | Cc1cccnc1O[C@H]1CC[C@@H](CCn2nc(C(=O)N3CCC(OCCO)CC3)c3c2CCC(F)(F)C3)CC1 [Example 90, [5,5-difluoro-1-(2-{cis-4-[(3-methylpyridin-2-yl)oxy]cyclohexyl}ethyl)-4,5,6,7-tetrahydro-1H-indazol-3-yl][4-(2-hydroxyethoxy)piperidin-1-yl]methanone] | 1.77
11 | CC(=O)NC1CCN(C(=O)c2nn(C[C@H]3C[C@H](Oc4ccc(Cl)cn4)CCO3)c3c2CC(F)(F)CC3)CC1 [Example 78, 1-{3-[4-(acetylamino)piperidine-1-carbonyl]-5,5-difluoro-4,5,6,7-tetrahydro-1H-indazol-1-yl}-2,6-anhydro-4-O-(5-chloropyridin-2-yl)-1,3,5-trideoxy-D-erythro-hexitol] | 315
12 | Cc1c(Cl)cccc1O[C@H]1CC[C@@H](CCn2nc(C(=O)N3C[C@@H](C)O[C@@H](C)C3)c3c2CCC3)CC1 [Example 53, (1-(2-((1s,4S)-4-(3-chloro-2-methylphenoxy)cyclohexyl)ethyl)-1,4,5,6-tetrahydrocyclopenta[c]pyrazol-3-yl)((2R,6S)-2,6-dimethylmorpholino)methanone] | 3.27
13 | CC(=O)NC1CCN(C(=O)c2nn(CCC3CCN(c4cncc(C)n4)CC3)c3c2CCCC3)CC1 [Example 31, N-[1-[1-[2-[1-(6-methylpyrazin-2-yl)-4-piperidyl]ethyl]-4,5,6,7-tetrahydroindazole-3-carbonyl]-4-piperidyl]acetamide] | 41.5
14 | CC(=O)NC1CCN(C(=O)c2nn(CCC3CCN(c4nccc(C(F)(F)F)c4F)CC3)c3c2CCCC3)CC1 [Example 35, N-[1-[1-[2-[1-[3-fluoro-4-(trifluoromethyl)-2-pyridyl]-4-piperidyl]ethyl]-4,5,6,7-tetrahydroindazole-3-carbonyl]-4-piperidyl]acetamide] | 1.66
15 | CC(=O)NC1CCN(C(=O)c2nn(CC[C@H]3CC[C@@H](Oc4ccc(C)nc4C)CC3)c3c2CCC3)CC1 [Example 67, N-(1-(1-(2-((1s,4s)-4-((2,6-dimethylpyridin-3-yl)oxy)cyclohexyl)ethyl)-1,4,5,6-tetrahydrocyclopenta[c]pyrazole-3-carbonyl)piperidin-4-yl)acetamide] | 2.33
16 | CC(=O)NC1CCN(C(=O)c2nn(CCN3CCN(c4cccc(C)c4C)CC3)c3c2[C@@H]2C[C@@H]2C3)CC1 [Example 100, N-(1-((3bR,4aR)-1-(2-(4-(2,3-dimethylphenyl)piperazin-1-yl)ethyl)-3b,4,4a,5-tetrahydro-1H-cyclopropa[3.4]cyclopenta[1,2-c]pyrazole-3-carbonyl)piperidin-4-yl)acetamide] | 2.32
17 | CC(=O)NC1CCN(C(=O)c2nn(CCC3CCN(c4ncc(F)cc4F)CC3)c3c2CCCC3)CC1 [Example 24, N-[1-[1-[2-[1-(3,5-difluoro-2-pyridyl)-4-piperidyl]ethyl]-4,5,6,7-tetrahydroindazole-3-carbonyl]-4-piperidyl]acetamide] | 2.56
18 | CC(=O)NC1CCN(C(=O)c2nn(CC[C@H]3CC[C@@H](Oc4nnccc4C)CC3)c3c2CCC3)CC1 [Example 69, N-(1-(1-(2-((1s,4s)-4-((4-methylpyridazin-3-yl)oxy)cyclohexyl)ethyl)-1,4,5,6-tetrahydrocyclopenta[c]pyrazole-3-carbonyl)piperidin-4-yl)acetamide] | 97.7
19 | CC(=O)NC1CCN(C(=O)c2nn(CCC3CCN(c4cccc(Cl)c4Cl)CC3)c3c2CCCC3)CC1 [Example 19, N-[1-[1-[2-[1-(2,3-dichlorophenyl)-4-piperidyl]ethyl]-4,5,6,7-tetrahydroindazole-3-carbonyl]-4-piperidyl]acetamide] | 1.73
20 | CC(=O)NC1CCN(C(=O)c2nn(CCC3CCN(c4cnc(C)c(C)c4)CC3)c3c2CCCC3)CC1 [Example 30, N-[1-[1-[2-[1-(5,6-dimethyl-3-pyridyl)-4-piperidyl]ethyl]-4,5,6,7-tetrahydroindazole-3-carbonyl]-4-piperidyl]acetamide] | 39.8
21 | Cc1cccnc1O[C@H]1CC[C@@H](CCn2nc(C(=O)N3CCC(N)CC3)c3c2C[C@H]2C[C@@H]32)CC1 [Example 88, (4-aminopiperidin-1-yl)[(3bR,4aR)-1-(2-{cis-4-[(3-methylpyridin-2-yl)oxy]cyclohexyl}ethyl)-3b,4,4a,5-tetrahydro-1H-cyclopropa[3,4]cyclopenta[1,2-c]pyrazol-3-yl]methanone] | 4.47
22 | Cc1cccnc1O[C@H]1CC[C@@H](CCn2nc(C(=O)N3CCC(C)(O)CC3)c3c2C[C@H]2C[C@@H]32)CC1 [Example 92, (4-hydroxy-4-methylpiperidin-1-yl)[(3bR,4aR)-1-(2-{cis-4-[(3-methylpyridin-2-yl)oxy]cyclohexyl}ethyl)-3b,4,4a,5-tetrahydro-1H-cyclopropa[3,4]cyclopenta[1,2-c]pyrazol-3-yl]methanone] | 1.41
23 | CC(=O)NC1CCN(C(=O)c2nn(CCC3CCN(c4ccc(C)nc4)CC3)c3c2CCCC3)CC1 [Example 29, N-[1-[1-[2-[1-(6-methyl-3-pyridyl)-4-piperidyl]ethyl]-4,5,6,7-tetrahydroindazole-3-carbonyl]-4-piperidyl]acetamide] | 22.7
24 | O=C(c1nn(C[C@H]2C[C@H](Oc3ncccc3F)CCO2)c2c1[C@@H]1C[C@@H]1C2)N1CCC(O)CC1 [Example 79, 2,6-anhydro-1,3,5-trideoxy-4-O-(3-fluoropyridin-2-yl)-1-[(3bR,4aR)-3-(4-hydroxypiperidine-1-carbonyl)-3b,4,4a,5-tetrahydro-1H-cyclopropa[3,4]cyclopenta[1,2-c]pyrazol-1-yl]-D-erythro-hexitol] | 9.78
25 | CC(=O)NC1CCN(C(=O)c2nn(CCC3CCN(c4cnc(C)cn4)CC3)c3c2CCCC3)CC1 [Example 27, N-[1-[1-[2-[1-(5-methylpyrazin-2-yl)-4-piperidyl]ethyl]-4,5,6,7-tetrahydroindazole-3-carbonyl]-4-piperidyl]acetamide] | 7.74
26 | Cc1cccnc1O[C@H]1CC[C@@H](CCn2nc(C(=O)N3CCC(NC(=O)OC(C)(C)C)CC3)c3c2C[C@H]2C[C@@H]32)CC1 [Example 89, tert-butyl {1-[(3bR,4aR)-1-(2-{cis-4-[(3-methylpyridin-2-yl)oxy]cyclohexyl}ethyl)-3b,4,4a,5-tetrahydro-1H-cyclopropa[3,4]cyclopenta [1,2-c]pyrazole-3-carbonyl]piperidin-4-yl}carbamate] | 3.37
27 | CC(=O)NC1CCN(C(=O)c2nn(CCC3CCN(c4ccccc4C(F)(F)F)CC3)c3c2CCCC3)CC1 [Example 16, N-(1-(1-(2-(1-(2-(trifluoromethyl)phenyl)piperidin-4-yl)ethyl)-4,5,6,7-tetrahydro-1H-indazole-3-carbonyl)piperidin-4-yl)acetamide] | 2.33
